Experimental data reported in patent publication US20060153912A1 (BASF Aktiengesellschaft, priority 2002, published 2006).

How the values were obtained:
[1] = Color stability of 10% strength solutions in water/methanol (1:1), 7 h at 65° C., with and without stabilizer; assay type: physicochemical; settings: 10% strength solution in water/methanol (1:1)
Protocol: The experiments took place under the following conditions: 10% strength solutions in water/methanol (1:1)—7 h at 65° C.

[2] = Color stability of 50% strength water/methanol solutions stirred at reflux (65° C.) in air, Gardner/Hazen color number
[3] = after only a few days at 40° C. in the presence of humidity
[4] = 50% choline ascorbate solution, additive 1% by weight, reaction time 2 h
[5] = 50% solution in 1:1 water/methanol, without additive, reaction time 0 h
[6] = 50% solution in 1:1 water/methanol, without additive, reaction time 1 h
[7] = 50% solution in 1:1 water/methanol, without additive, reaction time 2 h
[8] = 50% solution in 1:1 water/methanol, without additive, reaction time 7 h

Substance: Choline ascorbate
- Color number Gardner ([1]; no additive): 6.3
- Color number Hazen ([1]; no additive): >1 000 ^
- Color number Gardner ([1]; with 1% Cys): 0.1
- Color number Hazen ([1]; with 1% Cys): 27
- Color number Gardner [2, 4]: 3.5
- Color number Hazen [2, 4]: 758
- Color number Gardner [2, 5]: 0.1
- Color number Hazen [2, 5]: 28
- Color number Gardner [2, 6]: 1.9
- Color number Hazen [2, 6]: 305
- Color number Gardner [2, 7]: 3.5
- Color number Hazen [2, 7]: 758
- Color number Gardner [2, 8]: 6.3
- Color number Hazen [2, 8]: >1000
- Discoloration of the solid [3]: brownish color on the surface
